For the assay, the target named is Transcription factor p65 (Homo sapiens, UniProt Q04206). Kind of assay: Inhibition of biotinylated consensus sequence binding to NF-kB p65 in human HeLa nuclear extracts after 3 hrs by ELISA. The gist of the method: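 HeLa cells exposed to test samples at four concentrations for 3 h, then nuclear extracts prepared. Binding of activated p65 to a biotinylated consensus sequence was measured with an ELISA transcription-factor kit by chemiluminescence. Rocaglamide served as positive control. Run in triplicate, representative of independent experiments. IC50 expressed in μM.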

Protein sequences, listed by entry. Tags and fused reporters are not part of them.
UniProt Q04206, whole entry: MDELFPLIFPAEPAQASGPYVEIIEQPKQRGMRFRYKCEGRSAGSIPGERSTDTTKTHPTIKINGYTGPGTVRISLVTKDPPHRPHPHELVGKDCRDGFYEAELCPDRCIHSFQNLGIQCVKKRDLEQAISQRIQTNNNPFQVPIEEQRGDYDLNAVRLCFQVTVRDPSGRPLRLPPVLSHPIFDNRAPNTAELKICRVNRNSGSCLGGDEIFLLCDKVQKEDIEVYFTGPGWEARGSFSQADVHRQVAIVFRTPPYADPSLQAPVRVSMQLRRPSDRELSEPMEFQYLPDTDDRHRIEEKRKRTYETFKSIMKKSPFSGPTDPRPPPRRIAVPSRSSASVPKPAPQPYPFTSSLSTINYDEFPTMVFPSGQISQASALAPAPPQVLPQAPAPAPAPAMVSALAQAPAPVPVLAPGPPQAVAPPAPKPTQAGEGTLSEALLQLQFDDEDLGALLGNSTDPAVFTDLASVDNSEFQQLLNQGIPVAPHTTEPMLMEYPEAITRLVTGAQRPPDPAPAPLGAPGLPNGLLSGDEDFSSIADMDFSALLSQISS

What is called IC50 is the concentration needed to halve the response being measured. Read a low IC50 as inhibition by little substance. In turn, `COc1ccc([C@@]23Oc4cc(OC)cc(OC)c4[C@]2(O)[C@H](O)[C@H](C(=O)N(C)C)[C@H]3c2ccccc2)cc1` [ROCAGLAMIDE] gave an IC50 of 0.07 µM.

These data come from ChEMBL document CHEMBL4229490, “Cytotoxic and NF-κB and mitochondrial transmembrane potential inhibitory pentacyclic triterpenoids from Syzygium corticosum and their semi-synthetic derivatives” (Bioorg Med Chem, 2018).
